# Experimental data taken from paper PMC10014103, “The immunometabolite itaconate stimulates OXGR1 to promote mucociliary clearance during the pulmonary innate immune response” (The Journal of Clinical Investigation, 2023).
# Tested on: human OXGR1 orthosteric site mutants
# Assay: Aequorin assay in HEK293 cells expressing mutant human OXGR1
# Assay type: cell-based
# Conditions: effect of mutation on ligand-stimulated calcium response
# Procedure: Thirty-six hours after transfection, cells were maintained in serum-free medium for 12 hours and then loaded with 5 μM coelenterazine for 3 hours. Cells were trypsinized and resuspended at a density of 5 × 10^5 cells/mL in HBSS supplemented with 10 mM HEPES and 0.5% BSA. Cell suspensions of 100 μL were aliquoted into 96-well plates.
smiles,measurement,value
"O=C(O)CCC(=O)C(=O)O [α-KG, α-ketoglutaric acid, reference compound]","calcium response, mutants C106A, R110A, H258A, R261A, I265A",completely abolished
same,"calcium response, mutants H114A, Y118F, I121A, I285A, R288A",dramatically impaired
